# Experimental data from patent US12594347B2, “Nanoparticulate drug delivery systems” (Duke University, priority 2018, dated 2026).
# Conditions: mouse, in vivo
substance,measurement,value
"MSA: Mouse serum albumin labeled with Alexa488, administered as a positive control",Apparent distribution volume VD,2.78 ± 0.11 mL/g
same,Area under the curve AUC,157.3 ± 4.3 µM·h
same,Distribution half-life β t1/2,72.7 ± 10.2 min
same,Elimination rate constant kg,0.05 ± 0.00 h⁻¹
same,Plasma clearance CL,0.058 ± 0.002 mL/h/g
same,Plasma to tissue rate constant kpt,0.30 ± 0.05 h⁻¹
same,Tissue to plasma rate constant ktp,0.24 ± 0.04 h⁻¹
